Source: patent publication US12473278B2 (Industry—University Cooperation Foundation Hangyang …, priority 2019, dated 2025)

How the values were obtained:
Test in all cases: Kinase panel screening
Details in all cases: read-out: % inhibition rate
KDR/VEGFR2 = KDR/VEGFR2 (Homo sapiens (Human), UniProt P35968); format: biochemical
JAK3 = JAK3 (Homo sapiens (Human), UniProt P52333)
LCK = LCK (Homo sapiens (Human), UniProt P06239); format: biochemical
BRAF = BRAF (Homo sapiens (Human), UniProt P15056)
ABL1 = ABL1 (Homo sapiens (Human), UniProt P00519); format: biochemical
ALK = ALK (Homo sapiens (Human), UniProt Q9UM73)
CDK1/cyclinB = CDK1/cyclinB (Homo sapiens (Human), UniProt P06493)
MTOR/FRAP1 = MTOR/FRAP1 (Homo sapiens (Human), UniProt P42345); format: biochemical
JNK3 = JNK3 (Homo sapiens (Human), UniProt P53779)
EGFR = EGFR (Homo sapiens (Human), UniProt P00533)
BTK = BTK (Homo sapiens (Human), UniProt Q06187)
FGFR3 = FGFR3 (Homo sapiens (Human), UniProt P22607)
c-Kit = c-Kit (Homo sapiens (Human), UniProt P10721)
CDK2/cyclin E = CDK2/cyclin E (Homo sapiens (Human), UniProt P24941); format: biochemical
AKT1 = AKT1 (Homo sapiens (Human), UniProt P31749)
RIPK3 = RIPK3 (Homo sapiens (Human), UniProt Q9Y572)
RON/MSTIR = RON/MSTIR (Homo sapiens (Human), UniProt Q04912)
Aurora A = Aurora A (Homo sapiens (Human), UniProt O14965)
ERK1 = ERK1 (Homo sapiens (Human), UniProt P27361)
GSK3b = GSK3b (Homo sapiens (Human), UniProt P49841); format: biochemical
PLK1 = PLK1 (Homo sapiens (Human), UniProt P53350); format: biochemical
c-Src = c-Src (Homo sapiens (Human), UniProt P12931)
MEK1 = MEK1 (Homo sapiens (Human), UniProt Q02750)
IGFIR = IGFIR (Homo sapiens (Human), UniProt P08069)
c-MET = c-MET (Homo sapiens (Human), UniProt P08581)
PKA = PKA (Homo sapiens (Human), UniProt P17612)
FLT1/VEGFR1 = FLT1/VEGFR1 (Homo sapiens (Human), UniProt P17948)
P38a/MAPK14 = P38a/MAPK14 (Homo sapiens (Human), UniProt Q16539)
BRAF (V599E) = BRAF (V599E) (Homo sapiens (Human), UniProt P15056, V600E)
LYN = LYN (Homo sapiens (Human), UniProt P07948)

## Cc1oncc1C(=O)Nc1ccc2[nH]c(-c3cc(N4CCN(C)CC4)cc(C(F)(F)F)c3)nc2c1 [Compound 5a, 5-methyl-N-(2-(3-(4-methylpiperazin-1-yl)-5-(trifluoromethyl)phenyl)-1H-benz[d]imidazol-5-yl)isoxazole-4-carboxamide]
KDR/VEGFR2
  inhibition at 10 µM: 13.2%
JAK3
  inhibition at 10 µM: 0%
LCK
  inhibition at 10 µM: 0.625%
BRAF
  inhibition at 10 µM: 7.31%
ABL1
  inhibition at 10 µM: 17.1%
ALK
  inhibition at 10 µM: 12.6%
CDK1/cyclinB
  inhibition at 10 µM: 9.31%
MTOR/FRAP1
  inhibition at 10 µM: 2.35%
JNK3
  inhibition at 10 µM: 7.12%
EGFR
  inhibition at 10 µM: 4.09%
BTK
  inhibition at 10 µM: 15.6%
FGFR3
  inhibition at 10 µM: 2.81%
c-Kit
  inhibition at 10 µM: 15.5%
CDK2/cyclin E
  inhibition at 10 µM: 1.78%
AKT1
  inhibition at 10 µM: 11.9%
RIPK3
  inhibition at 10 µM: 12.7%
RON/MSTIR
  inhibition at 10 µM: 0%
Aurora A
  inhibition at 10 µM: 12.5%
ERK1
  inhibition at 10 µM: 5.18%
GSK3b
  inhibition at 10 µM: 3.98%
PLK1
  inhibition at 10 µM: 17.4%
c-Src
  inhibition at 10 µM: 0%
MEK1
  inhibition at 10 µM: 18.8%
IGFIR
  inhibition at 10 µM: 7.13%
c-MET
  inhibition at 10 µM: 9.18%
PKA
  inhibition at 10 µM: 8.46%
FLT1/VEGFR1
  inhibition at 10 µM: 12.7%
P38a/MAPK14
  inhibition at 10 µM: 0%
BRAF (V599E)
  inhibition at 10 µM: 11.9%
LYN
  inhibition at 10 µM: 15.2%
